High-throughput results: PubChem, National Center for Advancing Translational Sciences (NCATS)
Nrf2 block = Nrf2 pathway inhibition. A549 ARE-Fluc reporter, luciferase luminescence, 18-24 h. Potency, µM (top dose mostly 46 µM), for the others: at the highest dose activity change, negative = inhibition, usual class: inhibitors. 360,000 compounds, 2.1% hits. AID 504444; note: potency is the fitted concentration of half-maximal effect; % is set by controls: 0 for no effect and ±100 for the full control effect; nearly all actives have a fitted effect of over 60% in size
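Two sequential reads on A549 ARE_Fluc cells exposed to compound for 18-24 h: a CellTiter-Fluor fluorescence read for viability, then a luciferase luminescence read for Nrf2/ARE activity.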
miR-21 reporter = raises the signal of a miR-21 reporter; Potency, µM (doses to about 38.3 µM), inactives show top-dose reporter change, positive = more light; HeLa miR-21 FLuc reporter, luciferase, 48 h; AID 2288; 340,000 tested, under 10 active; active = well fitted rising curve with a large enough effect; inconclusive = small, poorly fitted or top-dose-only effect; inactive = no such curve, though single readings can be large or run the other way;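 further: % of control where 0% means no effect; miR-21 action dims this reporter so a rising signal means less miR-21 action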
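HeLa miR-21-FLuc reporter line, endogenous miR-21; 2000 cells/well in DMEM/10% FBS; compound titration up to ~40uM final, 48 h, 37 degree Celsius; luciferase detection reagent, 15 min lysis, CCD luminescence.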
Nrf2 ARE act = Nrf2 pathway activation | AID 624171 | AREc32 ARE-luciferase reporter (MCF7-derived line), luminescence, 24 h | Potency, µM (doses to about 46.1 µM), for the others: at the highest dose activation, actives largely listed as activators | 410,000 compounds, 0.31% hits; note: potency is the fitted concentration of half-maximal effect; % of control where 0% means no effect; nearly all actives have a fitted effect of over 65% in size
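ARE activation measured as luciferase luminescence (Steady-Glo, 30 min RT) in AREc32_Fluc cells after 24 hr compound exposure at 37 deg C, 5% CO2; cells seeded overnight at 1000/well in OPTI-MEM, 5% FBS.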
Mito fusion act = blocks mitochondrial division or promotes mitochondrial fusion | 320,000 compounds, 0.23% hits | S. cerevisiae fusion-defective mutant growth rescue, CellTiterGlo 48 h | Potency, µM (titrated, usually from 46.1 µM), without a hit: top-dose growth rescue (activation), usual class: activators; note: potency is the fitted concentration of half-maximal effect; % of control where 0% means no effect; nearly all actives have a fitted effect of over 45% in size
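Compounds are tested for their ability to restore growth of mitochondrial fusion-defective yeast strains at non-permissive 37C in YPEG medium over 48 hours. Viability is quantified by luciferase luminescence.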
GRP78 ERSR act = ER stress response induction in glioma; U87-MG GRP78 promoter luciferase reporter, 16 h; Potency, µM, inactives show at the highest dose activation, usual class: activators; 420,000 compounds, 0.02% hits; note: potency is the fitted concentration of half-maximal effect; series mostly up to about 76 µM; % of control where 0% means no effect; nearly all actives have a fitted effect of over 35% in size
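Stably transfected U87-MG glioma cells carrying a GRP78-based luciferase sensor; 16 h compound incubation. Luminescence end-point read 10 min after Bright-Glo addition at room temperature.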
A549 tox-1 = kills or reduces viability of A549 cells in Nrf2 counter-screen | 390,000 compounds, 0.16% hits | A549 ARE-Fluc cells, CellTiter-Fluor viability, 18-24 h | Potency, µM (series often up to 46 µM), without a hit: at the top dose activity change, negative = cytotoxicity, usual class: inhibitors | AID 504648; note: potency is the fitted concentration of half-maximal effect; % is set by controls: 0 for no effect and ±100 for the full control effect
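Cytotoxicity counterscreen: CellTiter-Fluor fluorescence was measured in A549 ARE_Fluc cells after 18-24 h of compound exposure in a concentration series. The subsequent BugLite luminescent read reports ARE-luciferase activity.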
FLuc counter 3 = firefly luciferase inhibition, Nrf2 hit validation. shares compounds with Nrf2 block. purified firefly luciferase, luminescence inhibition. AID 720522. Potency, µM (series often up to 57.5 µM), for inactives: at the top dose activity change, negative = inhibition, usual class: inhibitors. 1,400 compounds, 4% hits; note: potency is the fitted concentration of half-maximal effect; % is set by controls: 0 for no effect and ±100 for the full control effect; nearly all actives have a fitted effect of over 65% in size
A549 tox-2 = A549 cytotoxicity, Nrf2 inhibitor counterscreen; shares compounds with Nrf2 block; Potency, µM (top dose mostly 46.1 µM), inactives show at the top dose activity change, negative = cytotoxicity, hits mostly inhibitors; AID 720523; A549 ARE-Fluc cells, cytotoxicity counterscreen; 1,400 compounds, 2% hits;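 note: potency is the fitted concentration of half-maximal effect; cells exposed to compounds for 18 to 24 hours; % is set by controls: 0 for no effect and ±100 for the full control effect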
ARE-Fluc inh = Nrf2 inhibition confirmed, A549 ARE-luciferase; Potency, µM (highest dose often 46.1 µM), for inactives: at the highest dose activity change, negative = inhibition, hits mostly inhibitors; AID 720524; 1,400 compounds, 74% hits; A549 ARE-firefly luciferase reporter, luminescence; shares compounds with Nrf2 block; note: potency is the fitted concentration of half-maximal effect; % is set by controls: 0 for no effect and ±100 for the full control effect; nearly all actives have a fitted effect of over 65% in size
The depositor's hits bear a star; ? = inconclusive; nt = not tested or not shown. An excerpt weighted towards active compounds, which were near 2.3% of everything screened. Unless noted, calls come from the whole dose curve; as a rule, active = well fitted curve in the direction sought with a large enough effect; inconclusive = small, poorly fitted or top-dose-only effect, or another doubt; inactive = no such curve, though single readings can be large; an effect the other way counts as inactive or inconclusive.

Abbreviations: A = Nrf2 block; B = miR-21 reporter; C = Nrf2 ARE act; D = Mito fusion act; E = GRP78 ERSR act; F = A549 tox-1; G = FLuc counter 3; H = A549 tox-2; I = ARE-Fluc inh
1. COc1cc(OC)c(/C=C/c2ccccn2)c(OC)c1
  A: nt	B: nt	C: nt	D: nt	E: -3.8%	F: nt	G: 3.3%	H: -22.2%	I: 6.51µM*
2. COc1cc(OC)c(/C=C/c2ccc3ccccc3n2)c(OC)c1
  A: nt	B: nt	C: nt	D: nt	E: -5.6%	F: nt	G: -23.7%	H: ?	I: 6.51µM*
3. COc1cc(OC)c(/C=C/c2nccc3ccccc23)c(OC)c1
  A: nt	B: nt	C: nt	D: nt	E: -4.3%	F: nt	G: 7.57µM*	H: 23.3%	I: nt
4. COc1ccc(/C=C/c2ccc3ccccc3n2)cc1OC
  A: nt	B: nt	C: nt	D: nt	E: -10.0%	F: nt	G: nt	H: nt	I: nt
5. CO/N=C(/CS(=O)Cc1ccc(Cl)cc1)c1ccc(Cl)cc1 (configuration not stated)
  A: ?	B: -2.8%	C: 0.8%	D: 23.9%	E: -1.5%	F: -6.1%	G: nt	H: nt	I: nt
6. CN(c1ccccc1)S(=O)(=O)c1ccc(NC(=O)c2cc(=O)c3ccccc3o2)cc1
  A: ?	B: -5.8%	C: -1.1%	D: nt	E: -4.1%	F: -0.2%	G: nt	H: nt	I: nt
7. Cc1cc(OCC(=O)NCCc2nc3ccccc3[nH]2)cc(C)c1Cl
  A: ?	B: 3.6%	C: 5.4%	D: nt	E: -3.4%	F: 1.5%	G: nt	H: nt	I: nt
8. Cc1ccc(C2=NOC(=O)/C2=C\C=C\c2ccccc2)cc1
  A: ?	B: -5.5%	C: 9.0%	D: -1.2%	E: 1.3%	F: ?	G: nt	H: nt	I: nt
9. CCc1nnc(NC(=O)c2ccc(OCc3c(C)noc3C)c(OC)c2)s1
  A: 5.8µM*	B: 6.9%	C: 0.2%	D: 1.1%	E: -0.9%	F: 0.0%	G: 1.6%	H: 5.1%	I: 14.9%
10. Cc1ccc(C)c(S(=O)(=O)N(C)Cc2cccs2)c1
  A: -22.1%	B: nt	C: -0.1%	D: 6.1%	E: 0.3%	F: -2.3%	G: nt	H: nt	I: nt
11. Cc1[nH]c2ccccc2c1SCC(=O)NNC(=O)Nc1ccc(OC(F)(F)F)cc1
  A: -3.6%	B: 3.4%	C: 2.6%	D: 2.9%	E: -1.0%	F: -3.6%	G: nt	H: nt	I: nt
12. CN(c1ccccc1)S(=O)(=O)c1ccc(Cl)c(C(=O)Nc2ccncc2)c1
  A: 8.2µM*	B: nt	C: 10.1%	D: 8.4%	E: -1.8%	F: 1.2%	G: 1.3%	H: 0.7%	I: ?
13. CCN(c1ccccc1)S(=O)(=O)c1ccc(Cl)c(C(=O)Nc2ccncc2)c1
  A: nt	B: nt	C: 5.4%	D: nt	E: -1.8%	F: nt	G: nt	H: nt	I: nt
14. CS(=O)(=O)N(Cc1nc(-c2ccc(F)cc2)no1)c1ccccc1Cl
  A: -22.8%	B: nt	C: 3.6%	D: 15.2%	E: -2.8%	F: -0.2%	G: nt	H: nt	I: nt
15. CCNc1nc(C#N)nc(N2CCCCC2)n1
  A: 4.61µM*	B: nt	C: nt	D: nt	E: -1.9%	F: -10.0%	G: -9.6%	H: -23.4%	I: 7.31µM*

Entries of single compounds, quoted from the list.
Profile of `COc1cc(OC)c(/C=C/c2nccc3ccccc23)c(OC)c1` → Nrf2 block = nt; miR-21 reporter = nt; Nrf2 ARE act = nt; Mito fusion act = nt; GRP78 ERSR act = -4.3%; A549 tox-1 = nt; FLuc counter 3 = 7.57µM*; A549 tox-2 = 23.3%; ARE-Fluc inh = nt
Profile of `Cc1ccc(C2=NOC(=O)/C2=C\C=C\c2ccccc2)cc1` → Nrf2 block = ?; miR-21 reporter = -5.5%; Nrf2 ARE act = 9.0%; Mito fusion act = -1.2%; GRP78 ERSR act = 1.3%; A549 tox-1 = ?; FLuc counter 3 = nt; A549 tox-2 = nt; ARE-Fluc inh = nt

(cont.)
Abbreviations: A = Nrf2 block; B = miR-21 reporter; C = Nrf2 ARE act; D = Mito fusion act; E = GRP78 ERSR act; F = A549 tox-1; G = FLuc counter 3; H = A549 tox-2; I = ARE-Fluc inh
16. CCCNc1nc(N2CCCC2)nc(N2CCCC2)n1
  A: -19.2%	B: 6.7%	C: 2.8%	D: 4.3%	E: -6.8%	F: -4.1%	G: nt	H: nt	I: nt
17. N#Cc1nc(N2CCCCC2)nc(N2CCCCC2)n1
  A: 2.06µM*	B: nt	C: nt	D: nt	E: -2.5%	F: -3.5%	G: -13.4%	H: -23.3%	I: 5.17µM*
18. Cc1ccc(NC(=O)O/N=C2\CCCCC2c2ccc([N+](=O)[O-])cc2[N+](=O)[O-])cc1 (configuration not stated)
  A: -10.9%	B: -4.8%	C: 3.4%	D: -0.4%	E: -1.7%	F: -0.5%	G: nt	H: nt	I: nt
19. CC(C)CC(NC(=O)CCC(=O)OCC(=O)[C@@]1(O)CCC2[C@@H]3CCC4=CC(=O)C=C[C@]4(C)C3[C@@H](O)C[C@@]21C)C(=O)O (some centres not stated)
  A: ?	B: -25.8%	C: 0.1%	D: -1.5%	E: -5.4%	F: -11.5%	G: nt	H: nt	I: nt
20. CSCCC(NC(=O)CCC(=O)OCC(=O)[C@@]1(O)CCC2[C@@H]3CCC4=CC(=O)C=C[C@]4(C)C3[C@@H](O)C[C@@]21C)C(=O)O (some centres not stated)
  A: 0.206µM*	B: -43.4%	C: -0.6%	D: 0.9%	E: -0.7%	F: 1.0%	G: -0.5%	H: -6.4%	I: 0.058µM*
21. C[C@]12C=CC(=O)C=C1CC[C@@H]1C2C(O)C[C@@]2(C)C1CC[C@]2(O)C(=O)COC(=O)CCC(=O)NC(CC(=O)O)C(=O)O (some centres not stated)
  A: 0.103µM*	B: -30.0%	C: 2.7%	D: 3.7%	E: -4.3%	F: 0.0%	G: 4.3%	H: -11.1%	I: 0.259µM*
22. CC(=O)N1CCCc2cc(S(=O)(=O)N3CCC(C(=O)NC4CCC(C)CC4)CC3)ccc21 (configuration not stated)
  A: nt	B: -6.1%	C: 9.8%	D: nt	E: -0.3%	F: 12.2%	G: nt	H: nt	I: nt
23. COc1ccc(CCNC(=O)c2cccc([N+](=O)[O-])c2)cc1OC
  A: 2.59µM*	B: nt	C: -0.9%	D: nt	E: -4.9%	F: 3.2%	G: 3.4%	H: -9.4%	I: 3.66µM*
24. COc1ccc(CCNC(=O)c2ccc(-c3cccc([N+](=O)[O-])c3)o2)cc1OC
  A: ?	B: 12.4%	C: 0.6%	D: 5.7%	E: -4.5%	F: -0.7%	G: nt	H: nt	I: nt
25. CN(Cc1ccc(F)cc1)C(=O)c1cccc(S(=O)(=O)NCc2ccccc2)c1
  A: ?	B: nt	C: 4.0%	D: 18.5%	E: -1.6%	F: -1.2%	G: nt	H: nt	I: nt
26. C=CCOc1ccc(CN(C)C(=O)c2ccc(CNS(=O)(=O)c3ccc(C)c(C)c3)cc2)cc1
  A: 9.2µM*	B: nt	C: 0.5%	D: 12.5%	E: -1.1%	F: ?	G: 0.4%	H: -25.0%	I: ?
27. CSC1SCC2C(=O)N(C)C(C(C)C)C(=O)OCC(NC(=O)c3cnc4ccccc4n3)C(=O)NC(C)C(=O)N(C)C1C(=O)N(C)C(C(C)C)C(=O)OCC(NC(=O)c1cnc3ccccc3n1)C(=O)NC(C)C(=O)N2C (configuration not stated)
  A: 0.0065µM*	B: nt	C: -0.2%	D: nt	E: -3.2%	F: ?	G: ?	H: 10.3µM*	I: 6.51µM*
28. CC(=O)N1c2ccc(S(=O)(=O)N3CCC(C(=O)Nc4cccc(C)n4)CC3)cc2CC1C (configuration not stated)
  A: 1.46µM*	B: 25.0%	C: 1.6%	D: 7.2%	E: -2.3%	F: -15.3%	G: 0.0%	H: -8.2%	I: 5.8µM*
29. CC(=O)N1c2ccc(S(=O)(=O)N3CCC(C(=O)Nc4ccc(F)cc4)CC3)cc2CC1C (configuration not stated)
  A: ?	B: 15.4%	C: 0.5%	D: -3.8%	E: -4.7%	F: -11.4%	G: nt	H: nt	I: nt
30. COc1cccc(NC(=O)C2CCN(S(=O)(=O)c3ccc4c(c3)CC(C)N4C(C)=O)CC2)c1 (configuration not stated)
  A: ?	B: 22.0%	C: -0.1%	D: -4.2%	E: -4.5%	F: -4.2%	G: nt	H: nt	I: nt
31. CC(=O)N1c2ccc(S(=O)(=O)N3CCC(C(=O)Nc4cccc(C(F)(F)F)c4)CC3)cc2CC1C (configuration not stated)
  A: 4.61µM*	B: ?	C: 0.5%	D: 10.9%	E: -5.4%	F: -15.7%	G: 2.0%	H: -11.2%	I: 11.6µM*
